# Ab-14 heavy chain CDR variants: yeast mating affinities

Values reported by Engelhart et al. 2022, doi:10.1038/s41597-022-01779-4 (FLAb copy).

Target peptide (SARS-CoV-2 spike, HR2 region): PDVDLGDISGINAS

Each scFv is VH, three GGGGS repeats, VL, as in the parent Ab-14, and differs from it in the CDRs of the heavy chain only.
VH: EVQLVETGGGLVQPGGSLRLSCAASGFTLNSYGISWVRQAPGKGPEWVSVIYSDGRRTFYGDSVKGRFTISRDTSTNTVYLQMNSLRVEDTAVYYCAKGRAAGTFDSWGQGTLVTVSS
VL: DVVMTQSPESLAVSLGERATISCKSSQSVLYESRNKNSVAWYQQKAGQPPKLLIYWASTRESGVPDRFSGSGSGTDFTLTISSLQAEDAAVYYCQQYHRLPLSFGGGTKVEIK

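The starting antibody came from a phage panning campaign against this peptide. The library (AAYL49) carries one to three amino acid substitutions per variant, with no insertions or deletions. The scFvs were displayed on barcoded MATa yeast, the peptide on MATalpha yeast. Binding brings cells together so that they mate, and sequencing counts the barcode pairs among the diploids. The ratio of observed to expected reads was calibrated, replicate by replicate, on BCL2-family standards whose Kd was known from biolayer interferometry. Mating was done three times.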

Variants are written as CDR1, CDR2 and CDR3 of the heavy chain (limits as in the source). Parent: GFTLNSYGIS, VIYSDGRRTFYGDSVK, GRAAGTFDS. All variants listed here change V50 of the VH, counted from its first residue. Each Kd is an estimate from the mating assay, the geometric mean of the replicates in which the pair was seen; lower is stronger. "not detected" means that the variant was in the library but no mating with the target was seen in any replicate; the authors take this as a sign of poor binding, and no number exists. Empty control strains, which show no peptide, gave a signal in 15% of pairings with library AAYL49; the median was 11 µM and 95% of these signals were weaker than 680 nM. No background was subtracted. In this assay the parent's reference entry averaged 4.4 nM; its copy inside this library read 13 µM (one replicate of three).

CDR-H1	CDR-H2	CDR-H3	apparent Kd	seen in
GFTLNGYGIS	RIYSDHRRTFYGDSVK	GRAAGTFDS	not detected	0/3
GFTLNSYGIS	IIYSDGRRKFYGDHVK	GRAAGTFDS	1.7 µM	3/3
GFVLNSYGIS	HIYSDGRRTRYGDSVK	GRAAGTFDS	560 µM	2/3
GFTLNSYGIK	QIYSDGRRTFYGDSVK	GRAAGTFDS	5.8 µM	1/3
GFTLNSYGIS	FIYSDGFRTFYGDSVA	GRAAGTFDS	not detected	0/3
GFTLNSYGIS	TFYSDGRRTFYEDSVK	GRAAGTFDS	not detected	0/3
GFTLNSYGIS	NIYSQGRRTFYGDSVK	GMAAGTFDS	3.2 µM	1/3
GFTLNSYGIS	YIYSDQRRTFYGDSWK	GRAAGTFDS	8.6 µM	2/3
GFTLNSYVII	KIYSDGRRTFYGDSVK	GRAAGTFDS	12 µM	1/3
GFTLNSYGGS	YIYTDGRRTFYGDSVK	GRAAGTFDS	210 µM	2/3
GFTLNSYGWS	TIYSDGRRTFHGDSVK	GRAAGTFDS	8.5 µM	3/3
GFTLNSYGIS	MIYSPGRRFFYGDSVK	GRAAGTFDS	not detected	0/3
GFTLNSYGIS	AIYSDGRNTFYGDDVK	GRAAGTFDS	890 nM	1/3
GFTLNSYGIS	FIYSDGRRTDYGDSVK	GDAAGTFDS	not detected	0/3
GFTLNSYGIS	QIYSDGRMTFYGDSVK	GRAAGNFDS	170 µM	1/3
GFQLNSYGIS	PIYSDGRRTFYGDSVK	GRAAGTFDS	56 µM	3/3
GFTLNSYGIS	CIYSDGRRTFYGDSVK	SRAAGTFYS	16 µM	1/3
GFTLNSYGIS	EIYSDGRRTFYGDSVK	GRDYGTFDS	not detected	0/3
GFTLNSYGIS	MIYSDGRRGFYGDSVK	GRAAGKFDS	12 µM	1/3
GFTLESYGIS	YIYSDGRRTFYGDSVK	GDAAGTFDS	5.8 µM	1/3
GFTLNSYGIS	CIYSDGRRSFYGDPVK	GRAAGTFDS	not detected	0/3
GFTLNSYPIS	EIASDGRRTFYGDSVK	GRAAGTFDS	13 µM	2/3
EFTLNSYGIS	MIYSDGRRTFYGDSKK	GRAAGTFDS	not detected	0/3
GFTLNSYGWS	RIYSDGRRTFYGDSVK	GRAAGTFDD	not detected	0/3
GFTLNSYGIS	WIYSDGRRTFYGNSVK	GRAAGTGDS	3.2 µM	1/3
GFTNNSYWIS	TIYSDGRRTFYGDSVK	GRAAGTFDS	2.0 µM	1/3
GFTLNSYGIS	MIDSDGRRTFYGDSVK	GRAAGTFDS	not detected	0/3
GFTLNSYGIS	MIYSDQRRTFYGDSVK	GHAAGTFDS	not detected	0/3
GFTLISYHIS	QIYSDGRRTFYGDSVK	GRAAGTFDS	not detected	0/3
GFTLNEYGIS	HIYSDGRRTFYGDSVK	GRGAGTFDS	not detected	0/3
GFTLNSYGIS	RIYSDGRRTFYGDSVK	GRAAGLFDN	not detected	0/3
IFTLNSYGIS	TIYSFGRRTFYGDSVK	GRAAGTFDS	2.2 µM	1/3
GFTLPSYGIS	MIYSDGRYTFYGDSVK	GRAAGTFDS	310 µM	1/3
GFTLNSYGIS	LNYSDGRRTFYGDSVY	GRAAGTFDS	not detected	0/3
GFTLNSYGIS	WIYSDGRRTFKGDSVK	GRANGTFDS	not detected	0/3
GFTLNSYGIS	KIYDDGRRWFYGDSVK	GRAAGTFDS	not detected	0/3
GFTLNSYGIS	KIESDGRRTFYGDSVK	GRAAGNFDS	not detected	0/3
GFHLNSYGIS	SIYSDGRRTFYGDSVK	GRAAGTFDS	45 µM	2/3
GFTLNSYGIS	MIPSDGRRTFYGDSVK	GREAGTFDS	4.9 µM	1/3
GFTLNSYGIS	RIYSDGRRTFYGDSVK	GRAARTFDT	33 µM	1/3
GFTLNSYGIS	SIYSGGRRTFYFDSVK	GRAAGTFDS	not detected	0/3
GFTLNSYGIS	DIYSDGRRTFYGDSVK	GRAAGTFDS	not detected	0/3
GFTLNSYGIS	AIYSDGRRTFYGDSVK	GRAAGTFDR	33 µM	2/3
GFTLNSYGIS	CIYSDGRRTFYGDSVK	GRKAGTFKS	not detected	0/3
GFTLNSYGIS	PIYSDGRRTFYGDSVK	GRAAGVFDS	not detected	0/3
GFTMNSYGIS	IIYSDGRRTFYGDSVK	GRAAGTFDS	1.7 µM	2/3
GFTLNSYGIS	QIYSDGRRTFYPDSVK	GRAAATFDS	890 nM	1/3
GFTLNSYVIS	YIYSDGRRTFYGDSVK	GRAAGTFDC	not detected	0/3

For reference, 7 entries of the list once more:

CDR-H1	CDR-H2	CDR-H3	apparent Kd	seen in
GFTLNSYGIS	WIYSDGRRTFKGDSVK	GRANGTFDS	not detected	0/3
GFTLNSYGIS	EIYSDGRRTFYGDSVK	GRDYGTFDS	not detected	0/3
IFTLNSYGIS	TIYSFGRRTFYGDSVK	GRAAGTFDS	2.2 µM	1/3
GFTMNSYGIS	IIYSDGRRTFYGDSVK	GRAAGTFDS	1.7 µM	2/3
GFTLNSYGIK	QIYSDGRRTFYGDSVK	GRAAGTFDS	5.8 µM	1/3
GFTLNSYGIS	PIYSDGRRTFYGDSVK	GRAAGVFDS	not detected	0/3
GFTLNSYGIS	CIYSDGRRTFYGDSVK	GRKAGTFKS	not detected	0/3